System: MES-hGICs-MGT #1low and PN-hGICs-MGT #1low cells
Assay: Phenotypic screening of sLCR response to selected factors, FACS
Format: cell-based, human
Conditions: compared with hMG co-culture / TNFα
Procedure: To investigate adaptive responses to external signaling in MES-hGICs-MGT #1^low and PN-hGICs-MGT #1^low cells, we next performed a phenotypic screening. NBE-propagated hGICs were stimulated with selected factors (cytokines, growth factors, compounds) and FACS analyzed 48 hours after stimulation (FIG. 13b). […] This outcome was reproducible across two independent MES-GBM sLCRs (MGT #1-2) and follow up validation. Instead, the PN phenotype appeared to be less responsive to changes induced by external signaling. (FIG. 13b-c and 17). MES GBM specification appeared to be additive to a pre-existing endogenous phenotype as gauged by surface expression of CD133 and PNGT #2. Indeed, TNFα was previously reported as a prominent MES-GBM signaling pathway and inducer of a PN-to-MES transition.

IL-2: inflammatory mediator derived from the adaptive immune system
direct MGT #1 activation: did not trigger direct MGT #1 activation to a comparable extent
